Assay results from ChEMBL document CHEMBL1127071, “Structure-activity relationships of C-terminal endothelin hexapeptide antagonists” (J Med Chem, 1993).

Chains of the proteins cited; added tags and fusions are not shown. Lines headed by an entry give the natural chain unless they say otherwise; changes in a name come on top.
UniProt P26684: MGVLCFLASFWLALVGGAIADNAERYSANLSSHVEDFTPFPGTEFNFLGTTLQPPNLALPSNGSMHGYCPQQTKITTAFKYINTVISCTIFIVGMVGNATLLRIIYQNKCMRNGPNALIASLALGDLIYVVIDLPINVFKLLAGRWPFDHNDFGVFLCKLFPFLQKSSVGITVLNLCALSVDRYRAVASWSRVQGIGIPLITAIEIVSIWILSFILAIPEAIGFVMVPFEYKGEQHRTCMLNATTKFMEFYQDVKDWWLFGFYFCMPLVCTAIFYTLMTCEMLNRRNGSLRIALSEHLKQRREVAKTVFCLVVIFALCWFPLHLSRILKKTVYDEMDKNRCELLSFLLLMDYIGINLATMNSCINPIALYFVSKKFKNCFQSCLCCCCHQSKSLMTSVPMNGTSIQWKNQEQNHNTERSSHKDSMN

Legend:
[1] = target: T1, Endothelin receptor type B (Rattus norvegicus, UniProt P21451); assay: Effective concentration against Endothelin B receptor from rat cerebellum; type: tissue-based
T1 sequence (P21451 whole entry): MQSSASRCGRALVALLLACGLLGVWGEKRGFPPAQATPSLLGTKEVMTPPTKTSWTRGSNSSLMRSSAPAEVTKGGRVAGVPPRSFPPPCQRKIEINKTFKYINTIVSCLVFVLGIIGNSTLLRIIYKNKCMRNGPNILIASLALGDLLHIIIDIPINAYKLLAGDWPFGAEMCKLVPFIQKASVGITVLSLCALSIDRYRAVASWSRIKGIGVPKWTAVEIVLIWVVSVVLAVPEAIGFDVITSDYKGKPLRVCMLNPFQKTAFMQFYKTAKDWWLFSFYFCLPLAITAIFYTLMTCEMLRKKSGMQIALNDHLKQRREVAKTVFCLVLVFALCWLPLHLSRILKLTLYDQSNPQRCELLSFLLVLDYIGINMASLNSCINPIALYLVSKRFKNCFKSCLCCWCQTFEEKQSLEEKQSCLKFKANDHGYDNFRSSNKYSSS

[2] = target: Endothelin receptor (Rattus norvegicus, UniProt P26684+P21451); assay: Binding affinity against Endothelin receptor from rat heart ventricle; type: protein assay

## CC[C@H](C)[C@H](NC(=O)[C@H](CC(=O)O)NC(=O)[C@H](CC(C)C)NC(=O)[C@@H](Cc1c[nH]c2ccccc12)NC(C)=O)C(=O)N[C@H](C(=O)N[C@@H](Cc1c[nH]c2ccccc12)C(=O)O)[C@@H](C)CC
[1]
  IC50: 450 nM

## CC[C@H](C)[C@H](NC(=O)[C@H](CC(=O)O)NC(=O)[C@H](CC(C)C)NC(=O)[C@@H](Cc1ccc(-c2ccccc2)cc1)NC(C)=O)C(=O)N[C@H](C(=O)N[C@@H](Cc1c[nH]c2ccccc12)C(=O)O)[C@@H](C)CC
[2]
  IC50: 4400 nM
